Measurements as given in US20230312564A1, “AROMATIC RING-LACTAM COMPOUND, PREPARATION METHOD THEREFOR AND USE THEREOF” (SHANGHAI RINGENE BIOPHARMA CO., LTD., priority 2020, published 2023).

Biological target: T1, ERK1/2 kinase
T1 construct: fused on or other part: Carna's ERK products carry a GST tag by vendor knowledge
Test: ERK1/2 kinase (Carna) inhibitory activity, Caliper mobility shift
Assay type: biochemical
Conditions: numeric values; read-out: ERK½ IC50
Method: (1) Preparation of 1×Kinase buffer; (2) preparation of compound concentration gradient: the initial test concentration of the tested compound was 10 μM, which was 3-fold diluted to 10 concentrations, and a duplicate test was conducted, and then the tested compound was diluted in a 96 well plate to a 100-fold final concentration of 10 different concentrations of solution. […] Log (inhibitor) vs. response—Variable slope of the analysis software GraphPad Prism 5 was used to fit the dose-effect curve to obtain the IC50 value of each compound on the enzyme activity.
2. […] (A<10 nM, 10 nM≤B<200 nM, C≥200 nM)

## Cc1cccc([C@@H](CO)NC(=O)[C@@H](C)N2Cc3c(F)cc(-c4nc(NC5CCOCC5)ncc4Cl)cc3C2=O)c1 [Comparative compound 4, (R)-2-(6-(5-Chloro-2-((tetrahydro-2H-pyran-4-yl)amino)pyrimidin-4-yl)-4-fluoro-1-oxoisoindolin-2-yl)-N—((S)-2-hydroxy-1-(m-tolyl)ethyl)propanamide, reference compound]
  IC50: 0.7 nM
